Experimental findings from PubChem BioAssay AID602449 (Sanford-Burnham Center for Chemical Genomics, 2012) are described below.

Only a part is listed here, and it is no random draw. Activity calls are given as the source filed them.

A short description of this test: blockers of Ca2+-induced mitochondrial swelling – biochemical, isolated mouse mitochondria, absorbance, primary screen (AID 602449).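 Further: 0% = DMSO wells given calcium and 100% = 1 mM EGTA wells.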 Conditions: 30 min, at 10 µM, hits give high values.
As for `COc1cccc(C(=O)N(c2cc(C)cc(C)c2)C2CCN(C(=O)OC(C)(C)C)CC2)c1`, the inhibition – broadly, the relative decrease from the control value, in per cent – was inactive: -0.4%.
Then `COc1cc(OC)cc(C(=O)NCC2(N3CCOCC3)CCCCC2)c1`, with inactive: -0.4%.
Next, `COc1cccc(C(c2nnnn2C2CCCC2)N2CCC(n3c(=O)[nH]c4ccccc43)CC2)c1OC` (configuration not stated): inactive: -1.6%; `CCC(CO)(C(=O)OC1CN2CCC1CC2)c1ccccc1` (configuration not stated): inactive: 5%.
Then `CN1CCC(Nc2ccc(Cl)cc2)CC1`, with inactive: 0.3%; and `CCOc1ncccc1C(=O)NCC1(N2CCOCC2)CCCCC1`, with inactive: -0.6%; and `CN1CCC(Nc2ccc(F)c(Cl)c2)CC1`, with inactive: 0.7%.
`CC(C)(C)OC(=O)N1CCC(Nc2ccccc2)CC1`: the inhibition was inactive: 1.5%.
Then `NN(c1ccccc1)C1CCN(CCc2ccccc2)CC1`, with inactive: 1.8%; and `O=C(O)C1(Nc2ccccc2)CCN(Cc2ccccc2)CC1`, with inactive: -0.5%; and `O=c1[nH]c2ccccc2n1C1CCN(C(c2cc3ccccc3o2)c2nnnn2C2CCCC2)CC1` (configuration not stated), with inactive: 0.9%.
On to `CCCOc1ccc(C(=O)NCC2(N(C)C)CCCCC2)cc1`, for which the inhibition was inactive: 2%.
Turning to `Cc1ccccc1NC1(C#N)CCN(Cc2ccccc2)CC1`, the inhibition is inactive: -0.5%.
For `CCN1CCC(Nc2cccc(F)c2)CC1`, the inhibition was inactive: 0.2%.
Next, `COc1ccc(C(c2nnnn2C2CCCCC2)N2CCC(n3c(=O)[nH]c4ccccc43)CC2)cc1` (configuration not stated): inactive: -1.8%; `CC(C)(C)n1nnnc1C(c1ccnc2ccccc12)N1CCC(n2c(=O)[nH]c3ccccc32)CC1` (configuration not stated): inactive: -1%; `O=C(NCC1(N2CCCCC2)CCCCC1)c1ccco1`: inactive: -0.6%.
Next, `CN(C)c1ccc(C(=O)NCC2(N3CCCCC3)CCCCC2)cc1`: inactive: -0.4%; `Cn1c(=O)[nH]cc(N(CCCl)CCCl)c1=O`: inactive: -3.3%; `COc1cccc(C(c2nnnn2C2CCCCC2)N2CCC(n3c(=O)[nH]c4ccccc43)CC2)c1OC` (configuration not stated): inactive: 2.2%.
Next, `CC(=O)N(c1ccccc1)C1CCNCC1`: inactive: 0.3%; `CCC(c1nnnn1C1CCCCC1)N1CCC(n2c(=O)[nH]c3ccccc32)CC1` (configuration not stated): inactive: -0.1%; `COc1cc(OC)cc(C(=O)NCC2(N3CCCCC3)CCCCC2)c1`: inactive: 0.6%.
Consider `O=c1[nH]c2ccccc2n1C1CCN(C(c2ccnc3ccccc23)c2nnnn2C2CCCCC2)CC1` (configuration not stated), for which the inhibition was inactive: 0%.
In the case of `Cc1ccc(C(=O)NCC2(N3CCCCC3)CCCCC2)o1`, the inhibition was inactive: -2.4%.
`Fc1ccccc1NC1CCN(Cc2ccccc2)CC1`: the inhibition was inactive: -0.6%.
Next, `Cc1ccc(NC2(C#N)CCN(Cc3ccccc3)CC2)cc1`: inactive: -0.1%; `CN(C)C1(CNC(=O)c2cccc(C#N)c2)CCCCC1`: inactive: -1%.
As to `c1ccc(CN2CCC(Nc3ccccc3)CC2)cc1`, the inhibition is inactive: 1.6%.
Next, `Cc1cc(N(CCCl)CCCl)ccc1C=O`: inactive: -1.1%; `O=c1[nH]c2ccccc2n1C1CCN(C(c2ccccc2)c2nnnn2C2CCCC2)CC1` (configuration not stated): inactive: -0.5%; `CCCN1CCC(Nc2cc(OC)cc(OC)c2)CC1`: inactive: -0.1%.
`CC(C)(C)n1nnnc1C(c1cccc2ccccc12)N1CCC(n2c(=O)[nH]c3ccccc32)CC1` (configuration not stated): the inhibition was inactive: -3.6%.
Next, `N#Cc1ccc(C(=O)NCC2(N3CCCCC3)CCCCC2)cc1`: inactive: -0.8%; `CC(C)(C)OC(=O)N1CCC(N(C(=O)c2ccccc2)c2ccc(Cl)cc2)CC1`: inactive: 0%; `CCOC(=O)N1CCC(Nc2ccc(C)cc2)CC1`: inactive: 0.6%.
Then `COc1cccc(C(c2nnnn2C(C)(C)C)N2CCC(n3c(=O)[nH]c4ccccc43)CC2)c1OC` (configuration not stated), with inactive: -0.3%; and `N/C(=N\O)c1c(N)no[n+]1[O-]`, with inactive: -1.3%; and `O=C(OC1CN2CCC1CC2)C1c2ccccc2C=Cc2ccccc21` (configuration not stated), with inactive: -1.5%.
Next, `O=c1[nH]c2ccccc2n1C1CCN(C(c2cccs2)c2nnnn2C2CCCC2)CC1` (configuration not stated): inactive: -0.5%; `CCCCn1nnnc1C(c1cccc(OC)c1OC)N1CCC(n2c(=O)[nH]c3ccccc32)CC1` (configuration not stated): inactive: -0.4%; `CCCCn1nnnc1C(c1ccccc1)N1CCC(n2c(=O)[nH]c3ccccc32)CC1` (configuration not stated): inactive: -2.7%.
In the case of `COc1cc(C(=O)NCC2(N3CCOCC3)CCCCC2)cc(OC)c1C`, the inhibition was inactive: -0.1%.
Then `O=C(NCC1(N2CCOCC2)CCCCC1)c1cc(Br)ccc1Cl`, with inactive: -2.5%; and `O=c1[nH]c2ccccc2n1C1CCN(C(c2cccs2)c2nnnn2C2CCCCC2)CC1` (configuration not stated), with inactive: -1.8%.
Then `COc1ccc(C(=O)NCC2(N3CCOCC3)CCCCC2)cc1OC`, with inactive: -2.5%.
For `O=c1[nH]c2ccccc2n1C1CCN(C(c2ccnc3ccccc23)c2nnnn2C2CCCC2)CC1` (configuration not stated), the inhibition was inactive: -0.3%.
